The values below come from patent publication US20260176636A1, “APTAMER-DIRECT INHIBITOR CONJUGATES AND METHODS OF USING THE SAME” (Duke University, priority 2022, published 2026).

This data set has as its target Human alpha thrombin (Homo sapiens, UniProt P00734). In words: Fluorogenic activity assay (fluorescent peptidyl substrate cleavage), thrombin. The note with it: read-out: IC50 (concentration of inhibitor yielding 50% of the maximum inhibition), thrombin; thrombin 0.5 nM, fluorogenic substrate 50 μM.

Turning to HD22-7A-DAB, the IC50 worked out at 0.1 nM.
The result for “HD22: thrombin exosite II-binding DNA aptamer, SEQ ID NO: 1 [reference compound]” reads 0.95 nM.
